Our source for the Km values is US20080194701A1, “Bifunctional Enzyme with Y-Glutamylcysteine Synthetase and Glutathione Synthetase Activity and Uses Thereof” (priority 2004, published 2008).

For the data set, the system named is NCC(=O)O. Put plainly: purified protein, by the assay type. Particulars: other: substrate Km, GS activity.

On to “E. faecalis γ-GCS-GS (Enterococcus faecalis V583)”, for which the Km is 5.0 ± 0.5 mM.
